# Measured affinities in a library of Ab-14 heavy chain variants

Antigen: PDVDLGDISGINAS, a 14-residue peptide of the SARS-CoV-2 spike HR2 region.

Parent scFv Ab-14: VH joined to VL by the linker GGGGSGGGGSGGGGS. Changes lie in the heavy chain CDRs alone.
VH: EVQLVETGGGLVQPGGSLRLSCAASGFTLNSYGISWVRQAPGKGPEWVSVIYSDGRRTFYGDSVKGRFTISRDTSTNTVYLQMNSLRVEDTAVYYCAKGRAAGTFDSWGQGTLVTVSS
VL: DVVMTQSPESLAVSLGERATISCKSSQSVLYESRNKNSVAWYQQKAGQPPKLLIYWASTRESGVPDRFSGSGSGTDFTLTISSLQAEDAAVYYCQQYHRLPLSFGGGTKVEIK

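Phage display of a naive human antibody library on the peptide gave the parent. This is the validation round: designs drawn from the data on random variants, tested in the same kind of assay. Their group label is 14H_En_Gibbs (En: ensemble of fine-tuned language models; Gibbs: Gibbs sampling). The scFvs were displayed on barcoded MATa yeast, the peptide on MATalpha yeast. The frequency of each diploid, read from paired DNA barcodes, reflects how well the two displayed proteins bind. The ratio of observed to expected reads was calibrated, replicate by replicate, on BCL2-family standards whose Kd was known from biolayer interferometry. There are six technical replicates.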

Variants are written as CDR1, CDR2 and CDR3 of the heavy chain (limits as in the source). Parent: GFTLNSYGIS, VIYSDGRRTFYGDSVK, GRAAGTFDS.
Affinities are written as log10 Kd with Kd in nM; a lower number is a better binder.
The mean shown is taken over the replicates in which the pair was detected.
"ND" marks a missing value. The strain was present, yet no cells mated with the target were sequenced in that replicate, which points to weak or no binding.
Of ten entries with the parent sequence, four were seen in most replicates (averages 0.34 to 2.37), three in one and three in none, so single entries are noisy.

CDR-H1,CDR-H2,CDR-H3,"log10 Kd, replicates",mean log10 Kd (nM),empty controls
GFNLDEYGVS,VIYADGNRTQYTENVK,GTNWGAVDL,ND / ND / ND / ND / ND / ND,ND,0/18
GESLNEYGIS,VIYADGVRSGYTDQVK,GVNTGAVLD,ND / ND / ND / ND / ND / ND,ND,1/18 (1.28)
GFDLDEYGIS,VIYADGGRVSYAQNVK,GLVGKLGVV,ND / ND / ND / ND / ND / ND,ND,0/18
GKSLDEYGIS,VIYADGMRAEYQNQVK,GTTGGDFFV,ND / ND / ND / ND / ND / ND,ND,0/18
GFDLNEYGVS,VIYADGIRRAYAANFK,GVNAGGLDI,ND / ND / ND / ND / ND / ND,ND,0/18
GESLEQYGIS,VIYADGMRTSYTNSVK,GVWAGTFMQ,ND / ND / ND / ND / ND / ND,ND,0/18
GFSINEYGIS,VIYADGMRTAYVESVK,GTIDEDFNT,0.24 / 1.14 / -0.03 / -0.16 / 0.63 / 0.26,0.34,0/18
GFEIQEYGIS,VIYADGRRTAYAENVK,GTMAGTLST,1.01 / 0.44 / 0.31 / -0.07 / 0.61 / 0.36,0.44,0/18
GMDLNEYGIS,VIYADGRRTAYINQVK,GSQSMIVSS,ND / ND / ND / ND / ND / ND,ND,0/18
GFNLDEYGIS,VIYADGQRVAYANNVK,GKNGAFFSN,ND / ND / ND / ND / ND / ND,ND,0/18
GFDVDEYGIS,VIYADGFRTSYAADVK,GSQVGNALV,ND / ND / ND / ND / ND / ND,ND,0/18
GFTIDEYGIS,VIYADGQRVAYDEKVK,GMLAGTFDQ,-0.29 / -0.35 / -0.70 / -0.57 / -0.54 / -0.11,-0.43,1/18 (1.99)
GFDLQEYGIS,VIYADGARKSYTNSVK,GVWGGTMDV,ND / ND / ND / 2.99 / ND / ND,2.99,0/18
GRDIEDYGIS,VIYADGVRKVYHDSVK,GQVAGFFIT,ND / ND / ND / ND / ND / ND,ND,0/18
GYDMEDYGIS,VIYADGSRQFYHDNFK,GQLAGTFVM,ND / ND / ND / ND / ND / ND,ND,0/18
KENIDEYGIS,VIYADGRRTAYTQSVK,GQNGGQIDV,ND / ND / ND / ND / ND / ND,ND,2/18 (2.35)
GFDLNEQGIS,VIYADGVRTEYQNRVK,GQIDGSFTF,ND / ND / ND / ND / ND / ND,ND,0/18
GFDLEEYGIS,VIYADGRRSSYTDKVK,GGTVQMNGQ,ND / ND / ND / ND / ND / ND,ND,0/18
GFDLMEYGIS,VIYADGTRTGYTDKVK,GWFGDTGKT,ND / ND / ND / ND / ND / ND,ND,0/18
AFDIEDYGIS,VIYADGVRAMYKESVK,GGIAGTFEI,2.60 / 3.28 / 2.66 / 2.77 / 2.75 / 3.39,2.91,0/18
GFDLQEYGIS,VIYADGSRVVYQEKVK,GFSAGNFDT,ND / ND / ND / ND / ND / ND,ND,0/18
GFKLDEYGIS,VIYADGHRVAYSNKVK,GDNMGNMVE,ND / ND / ND / ND / 4.12 / ND,4.12,1/18 (2.69)
GFDINEYGIS,VIYADGKRMAYAWKVK,GLMAGTVIV,ND / ND / ND / ND / ND / ND,ND,0/18
GFEIQEYGIS,VIYADGFRTAYAESVK,GNMGGTFST,1.14 / 0.52 / 0.12 / 0.40 / 0.34 / 0.47,0.50,1/18 (1.83)
GFNLNEYGIS,VIYADGMRENYADSVK,GGLDVQEGY,ND / ND / ND / ND / ND / ND,ND,0/18
GFDLTEYGIS,VIYADGRRTQYSQSVK,GLNGGIIVV,ND / ND / ND / ND / ND / ND,ND,0/18
GFDLAEYGIS,VIYADGMRNAYATNVK,GYFGGNIMY,ND / 1.37 / 1.00 / 0.98 / 0.98 / 0.83,1.03,0/18
GFDLDEYGIS,VIYADGSRVAILESVK,GKIAGTLDA,0.27 / 0.06 / 0.44 / -0.24 / -0.15 / -0.16,0.04,0/18
GFNINEYGIS,VIYADGQRLSYDDKVK,GEITGTFNS,ND / ND / ND / ND / ND / ND,ND,0/18
GFDLGEYGIS,VIYADGVKQSYVDKVK,GANGVDLLV,ND / ND / ND / ND / ND / ND,ND,0/18
GMNLDEFGIS,VIYADGRRTAYSDEVK,GEHGWFLTI,ND / ND / ND / ND / ND / ND,ND,0/18
GFDLDEYGIS,VIYADGIRQYAQDNVK,GLLGGMTIT,ND / ND / ND / ND / ND / ND,ND,0/18
GDDLAEYGVS,VIYADGKRTEYSDHVK,GENGGFFDL,ND / ND / ND / ND / ND / ND,ND,0/18
GFDLDEYGIS,VIYADGSRTAYSKNVK,GEFDDMVLV,ND / ND / ND / ND / ND / ND,ND,0/18
GFDLSEYGIS,VIYADGRRASYTDAVK,GEVEGMLDV,ND / ND / ND / ND / ND / ND,ND,0/18
GFNLDEYGIS,VIYADGQRTQYANDVK,GGYAGSMLS,ND / ND / ND / ND / ND / ND,ND,0/18
GKDIEEYGIS,VIYADGMRQAYADSVK,GQVVGSGSF,ND / ND / ND / ND / ND / ND,ND,0/18
GKSLMEYGIS,VIYADGRRTAYTDSFK,GGSNADTFV,ND / ND / ND / ND / ND / ND,ND,0/18
GFDLMEYGVS,VIYADGQRAFYTDSVK,GKGAGTALN,-0.33 / -0.15 / -0.94 / -0.46 / -0.04 / -0.14,-0.34,0/18

4 of these entries, quoted again:

CDR-H1	CDR-H2	CDR-H3	log10 Kd, replicates	mean log10 Kd (nM)	empty controls
GFDLAEYGIS	VIYADGMRNAYATNVK	GYFGGNIMY	ND / 1.37 / 1.00 / 0.98 / 0.98 / 0.83	1.03	0/18
KENIDEYGIS	VIYADGRRTAYTQSVK	GQNGGQIDV	ND / ND / ND / ND / ND / ND	ND	2/18 (2.35)
GFDLDEYGIS	VIYADGGRVSYAQNVK	GLVGKLGVV	ND / ND / ND / ND / ND / ND	ND	0/18
GRDIEDYGIS	VIYADGVRKVYHDSVK	GQVAGFFIT	ND / ND / ND / ND / ND / ND	ND	0/18

As a blank, each scFv also met three strains without target: over all heavy chain designs, 1% of these pairings were detected, typically at 2.08 and seldom below 0.84. The control count says in how many pairings with the empty strains this scFv gave a signal, with their mean in brackets.
Values of this round are not directly comparable with the first-round values of the same sequences.
In the paper, a design with two or fewer of six values counts as a poor binder.

The measurements come from Li et al. 2023 (doi:10.1038/s41467-023-39022-2) through the FLAb antibody collection.